# Assay results from ChEMBL document CHEMBL1126240, “Structure-activity relationship studies of central nervous system agents. 5. Effect of the hydrocarbon chain on the affinity of 4-substituted 1-(3-chlorophenyl)piperazines for 5-HT1A receptor site” (J Med Chem, 1992).
# Amino acid sequences for entries named in this document (tags omitted).
# UniProt P19327, whole entry: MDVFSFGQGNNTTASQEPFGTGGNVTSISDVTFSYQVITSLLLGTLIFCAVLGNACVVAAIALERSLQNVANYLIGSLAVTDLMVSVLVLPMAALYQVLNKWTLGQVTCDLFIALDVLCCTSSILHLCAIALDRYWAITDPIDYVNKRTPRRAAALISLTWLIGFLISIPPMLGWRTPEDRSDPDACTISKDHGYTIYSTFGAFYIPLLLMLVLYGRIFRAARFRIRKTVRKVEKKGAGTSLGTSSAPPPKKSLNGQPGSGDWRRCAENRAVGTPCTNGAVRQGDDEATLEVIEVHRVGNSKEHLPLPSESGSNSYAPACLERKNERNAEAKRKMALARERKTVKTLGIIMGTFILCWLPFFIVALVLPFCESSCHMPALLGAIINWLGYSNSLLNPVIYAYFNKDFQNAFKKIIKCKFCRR
# Target: 5-hydroxytryptamine receptor 1A (Rattus norvegicus, UniProt P19327)
# Assay: In vitro ability to displace [3H]8-hydroxy-2-(di-n-propylamino) tetralin binding from 5-hydroxytryptamine 1A receptor site in rat brain hippocampus
# Type: tissue-based
structure (smiles),measurement,value
CC1(C)CC(=O)N(CCCCN2CCN(c3ncccn3)CC2)C(=O)C1 [GEPIRONE],Ki,0.0318 µM
